# Most compounds without a hit are left out; they make up all but 4.2% or so of the library.
# NALP1 yeast inh: inhibitors of NALP1 inflammasome in yeast | hit rate 0.61% among 280,000 | S. cerevisiae NALP1/ASC/caspase-1 growth, X-gal OD620, 72 h | AID 2071 | inhibition, % at 10 µM; in the data active = inhibition mostly above about 24%, no sharp cut-off; inactive = mostly below about 32%
# MC4R barr agon: activates human MC4R beta-arrestin recruitment | hit rate 0.98% among 360,000 | AID 540308 | activation, % at 8.9 µM | U2OS MC4R beta-arrestin complementation, luminescence; percent of melanotan II response, DMSO zero;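 active = activation above a per-plate cutoff, the mean activation of sample wells on that plate plus 3 SD, cut at about 8% in these data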
# HDAC3 inh: inhibitors of human histone deacetylase 3; recombinant HDAC3, fluorogenic peptide/trypsin coupled, fluorescence; inhibition, % at 8.3 µM; hit rate 0.15% among 320,000; in the data active = inhibition above about 26%, passing the limit was not always enough
# UUG fidelity: alters start codon recognition fidelity in yeast; AID 602363; activity score, % at 18.7 µM; 350,000 tested, 0.13% active; S. cerevisiae UUG-firefly luciferase reporter, luminescence/redox ratio;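 active means replicate mean at a twofold rise or more, about +100% in these data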;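 further: firefly luciferase made from a UUG start codon reports start codon fidelity; reporter light over untreated wells divided by growth signal over untreated wells; some hits fall short of that in this replicate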
# ALR H2O2 inh: inhibitors of human ALR sulfhydryl oxidase, primary screen, biochemical, H2O2 detection, HRP-luminol luminescence, single point; FAD-linked sulfhydryl oxidase ALR (Homo sapiens), P55789; purified ALR, DTT oxidation; inhibition, % (concentration not given with the values); AID 485317, 2010; actives 3.8% (n = 290,000);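 active means mean and each replicate at 75% or more; inconclusive means only one of the two met; inactive means neither met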;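 further: stock transfer was 7.5 nL into about 7.5 µL; 0% = neutral wells and 100% = wells with inactivated enzyme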
# MC4R antagonist: blocks human MC4R cAMP signaling; P32245; MC4R-expressing cells, MTII-stimulated cAMP, LANCE TR-FRET; inhibition, % at 6.5 µM; hit rate 0.48% among 360,000; AID 540295;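 active = inhibition above its plate's cutoff, the mean of tested wells on that plate plus 3 SD, cut at about 29% in these data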
#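 Assay system: human MC4R-expressing U2OS cells; reagent: Melanotan II stimulation of cells; dosing: 6.5 µM single dose; timing: compound 30 min, challenge 1 h, detection 1 h; signal: TR-FRET cAMP assay; replicates: one well per compound, no replicates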
# cAMP nonselect: U2OS forskolin cAMP inhibition counter-screen. parental U2OS, LANCE TR-FRET. AID 602193. shares compounds with MC4R antagonist. inhibition, % at 6.5 µM. hit rate 26% among 1,600;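 active = mean inhibition over triplicates above the low-control well mean plus 3 SD, set per campaign, cut at about 13% in these data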;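 also: signal is single emission at 671 nm which falls as cellular cAMP rises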
# MC4R cAMP antag: human MC4R cAMP antagonism confirmation. MC4R-expressing cells, MTII-stimulated cAMP, TR-FRET. hit rate 27% among 1,600. shares compounds with MC4R antagonist. AID 602195. inhibition, % at 6.5 µM; in the data active = inhibition above about 29%
# Hits are given with their value; – = inactive; · = not tested or not shown.
SMILES,NALP1 yeast inh,MC4R barr agon,HDAC3 inh,UUG fidelity,ALR H2O2 inh,MC4R antagonist,cAMP nonselect,MC4R cAMP antag
O=C(COC(=O)c1ccc(NS(=O)(=O)c2cccs2)cc1O)Nc1nc2ccccc2s1,–,–,·,·,·,31,–,–
C[C@@H]1CN([C@@H](C)CO)C(=O)c2cc(NC(=O)Cc3ccccc3)ccc2O[C@@H](C)CCCCO[C@@H]1CN(C)CC1CCCCC1,·,·,·,–,·,·,·,·
CCCOc1ccc(N2C(=O)CC(N3CCN(CCN=CC4=C(O)CC(C)(C)CC4=O)CC3)C2=O)cc1 (stereo not drawn),–,–,–,·,–,–,·,·
CC1(C)CC(=O)C(C=NCCN2CCN(C3CC(=O)N(c4ccc(Br)cc4)C3=O)CC2)=C(O)C1 (stereo not drawn),–,–,–,·,–,33,–,–
O=C(C[C@H]1C[C@H]2c3cc(NC(=O)Cc4ccncc4)ccc3O[C@H]2[C@@H](CO)O1)NCc1cccnc1,·,·,·,–,·,·,·,·
Cc1cccnc1NC(=O)C(C)N1C(=O)c2ccccc2C1=O (stereo not drawn),·,–,–,–,–,31,–,–
Cc1ccccc1NC(=O)C(C)N1C(=O)c2ccccc2C1=O (stereo not drawn),–,–,–,–,–,–,·,·
COC(=O)c1ccc2c(=O)[nH]c(COC(=O)c3[nH]c(C)c(C(C)=O)c3C)nc2c1,·,–,–,–,–,–,·,·
COC(=O)c1ccc2c(=O)[nH]c(COC(=O)c3c(-c4ccccc4Cl)noc3C)nc2c1,·,–,–,·,–,29,–,–
C=CC(=O)N1C/C(=C/c2ccc(Cl)cc2)C(=O)/C(=C\c2ccc(Cl)cc2)C1,·,–,·,·,·,45,22,–
Cc1ccc(S(=O)(=O)Nc2ccc3c(c2)CC(=O)N([C@H](C)CO)C[C@H](C)[C@@H](CN(C)S(=O)(=O)c2cccs2)O3)cc1,·,·,·,–,·,·,·,·
Cc1cc(-c2sccc2Br)nc(-n2cccc2)n1,–,–,·,·,·,35,–,–
Cc1ccsc1-c1ccnc(-n2cccc2)n1,–,–,–,–,–,–,·,·
Cc1cc(-c2ccc(Br)s2)nc(-n2cccc2)n1,–,–,·,·,·,41,–,–
COc1ccc(NC(=O)Nc2ccc3c(c2)CC(=O)N([C@@H](C)CO)C[C@@H](C)[C@H](CN(C)Cc2ccncc2)O3)cc1,·,·,·,–,·,·,·,·
COc1cc(-c2cc(C(=O)Nc3ccc(C)c(S(=O)(=O)N4CCOCC4)c3)c3ccccc3n2)cc(OC)c1OC,·,–,–,–,–,32,–,–
COc1cc(-c2cc(C(=O)Nc3ccccc3N3CCOCC3)c3ccccc3n2)cc(OC)c1OC,–,–,–,·,–,–,·,·
CN(C)S(=O)(=O)c1ccc(N2CCCC2)c(C(=O)N2CCN(c3ccc([N+](=O)[O-])cc3)CC2)c1,–,–,–,–,–,34,–,–
O=C(Nc1ccccc1)Nc1ccc2ccccc2c1,–,–,–,·,–,–,·,·
CC(C)Sc1cc(Cl)nc(NC(=O)Nc2ccccc2)n1,–,–,–,–,–,31,17,39
Cc1ccc(C)c(NC(=O)CCC(=O)N/N=C/c2ccc3c(c2)OCO3)c1,–,–,–,·,–,31,–,–
CCOc1ccc(NC(=O)CCC(=O)N/N=C/c2ccc3c(c2)OCO3)cc1,–,–,–,·,–,–,·,·
CCOc1ccccc1OCC(=O)Nc1cc(C)on1,·,–,–,–,·,–,·,·
Cc1cc(NC(=O)COc2ccc3ccccc3c2Br)no1,·,–,–,–,–,46,20,35
CS(=O)(=O)c1ccc(Cl)c(NC(=O)CSc2nc3ccccc3c(=O)n2CCCN2CCOCC2)c1,–,–,–,·,–,31,–,–
SMILES,NALP1 yeast inh,MC4R barr agon,HDAC3 inh,UUG fidelity,ALR H2O2 inh,MC4R antagonist,cAMP nonselect,MC4R cAMP antag
S=c1[nH]c(-c2ccccc2)cn1/N=C/c1cccc2ccccc12,–,–,–,·,–,29,–,–
S=c1[nH]c(-c2ccccc2)cn1/N=C/c1ccccc1Br,–,–,–,–,–,–,·,·
CCn1nc(C)c(C2C(C#N)=C(N)Oc3n[nH]c(C)c32)c1C (stereo not drawn),–,–,–,·,–,31,–,–
CCC(CC)C1C(C#N)=C(N)Oc2n[nH]c(C)c21 (stereo not drawn),–,–,–,–,–,–,·,·
COc1cc(OC)cc(C(=O)Nc2nc3ccc(S(C)(=O)=O)cc3s2)c1,–,–,–,–,–,34,–,–
CS(=O)(=O)c1ccc2nc(NC(=O)c3cc([N+](=O)[O-])cc([N+](=O)[O-])c3)sc2c1,–,–,–,–,–,–,·,·
Cc1ccc(Cl)cc1NC(=O)Nc1cccs1,–,–,–,·,–,30,–,–
CS(=O)(=O)c1ccc(Cl)c(NC(=O)COC(=O)CNC(=O)c2ccc(Br)o2)c1,–,–,–,–,–,32,–,–
COCCN(CCOC)S(=O)(=O)c1ccc(C(=O)Nc2ccc(S(=O)(=O)Nc3nccc(C)n3)cc2)cc1,–,–,–,·,90,30,–,–
COc1ccc(C(=O)Nc2ccc(S(=O)(=O)Nc3nccc(C)n3)cc2)cc1,–,–,–,–,·,–,·,·
O=C1CNC(=O)/C1=C\c1ccc(O)cc1,–,–,–,·,–,–,·,·
O=C1CNC(=O)/C1=C/c1ccc(Br)cc1,–,–,–,–,–,32,–,–
COC(=O)CSc1[nH]c2ccc(F)cc2c1[N+](=O)[O-],·,–,·,–,·,34,–,–
Cc1ccc(C)c(-c2cc(C(=O)Nc3cccc(C(=O)O)c3)c3ccccc3n2)c1,–,–,–,·,–,35,–,–
Cc1ccc(C)c(-c2cc(C(=O)Nc3cccnc3)c3ccccc3n2)c1,–,–,–,–,–,–,·,·
Cc1ccc(-c2cnc3c(c2)C(=O)N([C@@H](C)CO)C[C@H](C)[C@@H](CN(C)C(=O)c2cccnc2)O3)cc1,·,·,·,–,·,·,·,·
C[C@@H]1CN([C@H](C)CO)C(=O)c2cccc(NC(=O)C3CCCCC3)c2O[C@@H]1CN(C)CC1CC1,·,·,·,–,·,·,·,·
COC(=O)c1c(NC(=S)Nc2ccc(F)cc2[N+](=O)[O-])sc2c1CCCCC2,–,–,–,–,–,–,·,·
COC(=O)c1c(NC(=O)COC(=O)c2ccc(Cl)cc2[N+](=O)[O-])sc2c1CCCCC2,–,–,–,·,–,31,–,–
COc1ccc(CN(C)C[C@H]2OCCCC[C@@H](C)Oc3ccc(NC(=O)c4ccncc4)cc3C(=O)N([C@@H](C)CO)C[C@H]2C)cc1,·,·,·,–,·,·,·,·
Cc1ccc(CN(C(=O)c2ccc(Cl)c([N+](=O)[O-])c2)C2CCS(=O)(=O)C2)o1 (stereo not drawn),–,–,–,–,–,37,19,37
OC[C@@H]1[C@H](c2ccc(-c3ccncc3)cc2)[C@@H]2CN(Cc3ccccn3)CCCCN12,·,·,·,–,·,·,·,·

# Source: PubChem
